Laboratory results as given in patent US7989447B2, “1,5 and 3,6-substituted indole compounds having NOS inhibitory activity” (NeurAxon, Inc., priority 2006, dated 2011).

Target: human neuronal constitutive NOS (nNOS) (Homo sapiens, UniProt P29475)
Assay: nNOS (Human) enzyme assay, radiometric conversion of [3H]L-arginine to [3H]L-citrulline
Type: biochemical
Conditions: for IC50: recombinant human enzyme, 37° C., 45 min; for Ratio e/n: human eNOS / human nNOS

Ratio e/n	Structure (SMILES)	IC50 [nM]
–	CN1CCCC(n2ccc3cc(NC(=N)c4ccco4)ccc32)CC1 (single isomer, unassigned) [(+)−55]	400
–	CN1CCCC1CCn1ccc2cc(NC(=N)c3cccs3)ccc21 (single isomer, unassigned) [(+)−57]	60
–	CN1CCCC(n2ccc3cc(NC(=N)c4ccco4)ccc32)CC1 (single isomer, unassigned) [(−)−55]	560
–	CN1CCCC1CCn1ccc2cc(NC(=N)c3cccs3)ccc21 (single isomer, unassigned) [(−)−57]	20
46.34	N=C(Nc1ccc2c(c1)cc(-c1ccc([N+](=O)[O-])cc1)n2CCN1CCCCC1)c1cccs1 [Compound 18, N-(2-(4-nitrophenyl)-1-(2-(piperidin-1-yl)ethyl)-1H-indol-5-yl)thiophene-2-carboximidamide]	–
10.31	CN1CCCC1CCn1c(-c2ccc([N+](=O)[O-])cc2)cc2cc(NC(=N)c3cccs3)ccc21 (stereo not shown) [Compound 21, N-(1-(2-(1-methylpyrrolidin-2-yl)ethyl)-2-(4-nitrophenyl)-1H-indol-5-yl)thiophene-2-carboximidamide]	–
–	CN1CCCC(n2ccc3cc(NC(=N)c4ccco4)ccc32)CC1 (stereo not shown) [Compound 54, N-(1-(1-methylazepan-4-yl)-1H-indol-5-yl)furan-2-carboximidamide]	430
